Screening data deposited in PubChem BioAssay by Broad Institute.
PglD DTNB: inhibitors of Campylobacter jejuni PglD acetyltransferase; purified PglD enzyme, DTNB colorimetric CoA detection; inhibition, % at 12.5 µM; hit rate 0.098% among 360,000; in the data active = inhibition above about 16%, passing the limit was not always enough; inconclusive = no clear call, values can overlap the other calls
miR-122 sensor: miR-122 inhibition in Huh7 cells. Huh7 miR-122 Renilla luciferase sensor, 48 h; neutral wells = 0, positive control = 100. activation (reporter increase), % at 12.5 µM. hit rate 0.3% among 340,000. AID 602342;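 active = mean replicate activation score at least 90 and every replicate individually at or above 90; inconclusive = only one of the two criteria met; inactive = neither criterion met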;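 also: higher luciferase means less miR-122 activity so hits act as miR-122 inhibitors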
F508del corr: CFTR F508del correction in bronchial cells; activity (quench increase), % at 7.58 µM; hit rate 0.36% among 350,000; CFBE cells, YFP halide quenching; stimulated with forskolin plus potentiator P3; % fluorescence drop versus neutral controls; AID 720511;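 active = mean added fluorescence quench of at least 8% versus neutral control, with both replicates also reaching 8%; inconclusive = only one of the mean or replicate conditions met; inactive = mean below 8% and not both replicates reaching 8%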;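 also: cells transiently co-express mutant CFTR-F508del with the halide-sensitive YFP; corrector assay measuring rescue of mutant channel to the surface after 24 h compound exposure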
EWS-Fli block: blocks EWS/Fli oncoprotein-driven transcription. A673 NR0B1-luciferase reporter, viability-normalised. inhibition, % at 12.6 µM. hit rate 0.67% among 350,000;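 active = mean inhibition of at least 50% after viability correction, with every replicate also passing that limit; inconclusive = mean reaches 50% but only one of two replicates passes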;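 also: firefly luciferase signal divided by Alamar Blue viability fluorescence both relative to DMSO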
LGR2 inh: Drosophila LGR2 receptor signaling inhibition. HEK293 LGR2, CRE-luciferase, bursicon-stimulated, 4 h. hit rate 0.35% among 380,000. inhibition, % at 9.99 µM;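 active = drop in luminescence signal, shown as inhibition above about 50% in the replicate tests, limit read from the data, passing the limit was not always enough; inconclusive = probably only some replicates passing the limit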;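 also: agonist challenge used bursicon conditioned medium at about half maximal strength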
Yeast UUG start: alters start codon recognition fidelity in yeast | S. cerevisiae UUG-firefly luciferase reporter, luminescence/redox ratio | activity score, % at 18.7 µM | hit rate 0.13% among 350,000 | AID 602363;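 active means replicate mean at a twofold rise or more, about +100% in these data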;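 further: firefly luciferase made from a UUG start codon reports start codon fidelity; reporter light over untreated wells divided by growth signal over untreated wells; some hits fall short of that in this replicate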
Each line names hits and unclear results; the compound was inactive in the other large screens; ! = not active in a repeat. Rows were chosen to be rich in hits. Some 1.3% of all compounds tested hit in one or more screens of this group.

COc1ccc2nc(C)cc(N/N=C/c3ccc(F)cc3)c2c1	EWS-Fli block 71.0, LGR2 inh 69.2
COc1ccc(/C=N/Nc2cc(C)nc3c(C)cccc23)cc1	EWS-Fli block 67.0 (no result: miR-122 sensor)
CC(C)(C)c1nc(NCCN2CCOCC2)c2nnn(Cc3ccccc3Cl)c2n1	none (no result: PglD DTNB, miR-122 sensor, Yeast UUG start)
COc1ccc(NC(=O)c2cccc(S(=O)(=O)Nc3ccc(Br)cc3)c2)cn1	miR-122 sensor 102.6 (no result: PglD DTNB, Yeast UUG start)
Cc1ccc2c(c1)sc(=NC(=O)c1cccs1)n2C	EWS-Fli block 77.7, LGR2 inh 95.6 (no result: PglD DTNB, miR-122 sensor, Yeast UUG start)
COc1cc(-c2nc3ccccn3c2NCc2ccccc2)ccc1SC1CCCCC1	none (no result: miR-122 sensor, F508del corr, EWS-Fli block, LGR2 inh)
COc1ccc(-c2nc3ccccn3c2NC2CCCCC2)cc1SC1CCCCC1	miR-122 sensor 114.7 (no result: LGR2 inh)
O=C(c1ccccc1)N1CCSc2sccc2C1=O	EWS-Fli block 67.2, LGR2 inh 97.7
COc1ccc(CC(=O)Nc2nccs2)cc1S(=O)(=O)N1CCOCC1	F508del corr 17.0 (no result: miR-122 sensor)
CC(C)CC#Cc1ccc2c(c1)O[C@@H](CN(C)C(=O)c1ccncc1)[C@H](C)CN([C@H](C)CO)S2(=O)=O	none
CN(C)S(=O)(=O)c1ccc(NC(=S)NC(=O)C2CCC2)cc1	none (no result: EWS-Fli block)
CN(Cc1ccccc1)S(=O)(=O)c1ccc(NC(=S)NC(=O)C2CCCC2)cc1	miR-122 sensor 123.7, F508del corr 13.9, EWS-Fli block inconclusive
OC(c1ccc(F)cc1)c1ncc(-c2ccccc2F)[nH]1 (configuration not stated)	miR-122 sensor 145.7
COc1ccccc1-c1cnc(C(O)c2cc(Cl)cc(Cl)c2)[nH]1 (configuration not stated)	none
OC(c1cc(Cl)cc(Cl)c1)c1ncc(-c2ccccc2F)[nH]1 (configuration not stated)	miR-122 sensor 150.4
O=C(NCc1nnnn1-c1ccc(Cl)cc1)C(=O)c1c[nH]c2ccccc12	F508del corr 11.0
COc1ccc(NC(=O)c2cccc3c(-c4cnn(C)c4)coc23)cc1	none
COc1cc(NC(=O)c2cccc3c(-c4cnn(C)c4)coc23)cc(OC)c1OC	LGR2 inh 72.5
Cc1ccccc1P(=O)(c1ccccc1)c1ccccc1C	none (no result: LGR2 inh)
CN(CCCC(=O)Nc1ccccc1)S(=O)(=O)c1ccc(Cl)cc1	none
Cc1ccc(NN2C(=O)C=C(c3ccccc3)C2=O)cc1	EWS-Fli block 62.8
CCOC(=O)[C@@H]1[C@@H]2C=C[C@]3(O2)[C@H](C(=O)NCc2ccccc2)N(CCCCCCO)C(=O)[C@@H]13	F508del corr 10.5 (no result: PglD DTNB, miR-122 sensor, LGR2 inh, Yeast UUG start)
C#CCN1C(=O)C2C(C(=O)NC)C3C=CC2(O3)C1C(=O)NCc1ccc(OC)cc1 (configuration not stated)	none (no result: F508del corr, EWS-Fli block, LGR2 inh)
CCc1nn(CCCC(=O)NCc2ccco2)c(=O)c2cc3occc3n12	none (no result: miR-122 sensor, EWS-Fli block)
Cc1cccc(NC(=O)N2CCC(NC(=O)c3ccccc3C)CC2)c1	none (no result: F508del corr, EWS-Fli block, LGR2 inh)
COc1cc(NC(=O)N2CCNC2=O)cc(C(=O)Nc2cccc(C(F)(F)F)c2)c1	F508del corr 8.0, EWS-Fli block 59.4 (no result: miR-122 sensor)
CCN1CCN(Cc2ccc(NC(=O)c3cc(NC(=O)N4CCNC4=O)cc(OC)c3)cc2C(F)(F)F)CC1	none
Cc1nn(C2CCS(=O)(=O)C2)c2nc(C3CC3)cc(C(=O)Nc3cccc(C#N)c3)c12 (configuration not stated)	F508del corr 8.7
CCC1CCCCN1S(=O)(=O)c1ccc(NC(=O)c2ccncc2)cc1 (configuration not stated)	none (no result: EWS-Fli block)
CC(C)c1nnc(NC(=O)c2nc(S(=O)(=O)Cc3ccccc3F)ncc2Cl)s1	EWS-Fli block 61.0 (no result: PglD DTNB, miR-122 sensor, Yeast UUG start)
CCC1CCCCN1S(=O)(=O)c1ccc(NC(=O)c2nc(S(C)(=O)=O)ncc2Cl)cc1 (configuration not stated)	EWS-Fli block 69.0
Cc1ccc(CS(=O)(=O)c2ncc(Cl)c(C(=O)Nc3ccc(OC(F)F)cc3)n2)cc1	none
Cc1ccc(CS(=O)(=O)c2ncc(Cl)c(C(=O)Nc3nnc(C(C)C)s3)n2)cc1	EWS-Fli block 69.8
CCS(=O)(=O)c1ncc(Cl)c(C(=O)Nc2ccc(C)cc2)n1	EWS-Fli block 64.8 (no result: miR-122 sensor)
CC(C)NC(=O)N1C[C@@H]2[C@H](c3ccccc31)[C@@H](CO)N2C(=O)Nc1ccc(F)cc1	none
O=C(COC(=O)/C=C/c1ccc(Cl)cc1)Nc1ccccc1	none
COc1ccc(CNC(=S)N/N=C(/C)c2ccccc2)cc1	none
O=C(Nc1ccc2ccccc2c1)c1cnccn1	none (no result: F508del corr, EWS-Fli block, LGR2 inh)
CS(=O)(=O)c1ncc(Cl)c(C(=O)Nc2ccc3ccccc3c2)n1	EWS-Fli block 84.2 (no result: PglD DTNB, miR-122 sensor, LGR2 inh, Yeast UUG start)
COc1ccc(NC(=O)c2cc(C3CC3)on2)c(OC)c1	F508del corr 8.2
O=C1O[C@H](c2ccccc2)[C@H](c2ccccc2)N2[C@H]1[C@@H](C(=O)NC[C@H](O)c1ccccc1)[C@]1(C(=O)Nc3ccc(C#CC4=CCCCC4)cc31)[C@H]2c1ccc(OCCO)cc1	none (no result: miR-122 sensor, LGR2 inh)
CCCOc1ccc(-c2cc3onc(-c4ccccc4)c3c(=O)n2C)cc1	EWS-Fli block 62.4
CNC(=O)c1ccc(-c2cc3onc(-c4ccccc4)c3c(=O)n2C)cc1	none
Cc1ccc(-c2cc3onc(-c4ccccc4)c3c(=O)n2C)cc1	EWS-Fli block 80.5, LGR2 inh 85.2
O=C1C=CC(=C(c2ccc(O)cc2)c2ccc(O)cc2)C=C1	LGR2 inh 57.9! (no result: miR-122 sensor)
O=[N+]([O-])c1ccc(Sc2nnnn2-c2ccccc2)nc1	LGR2 inh 67.8 (no result: PglD DTNB, miR-122 sensor, Yeast UUG start)
Cc1ccc(S(=O)(=O)Nc2cc(C)cc(CCNC=O)c2C)cc1	F508del corr 9.6 (no result: PglD DTNB, miR-122 sensor, Yeast UUG start)
Cc1ccc(-c2nnc(Nc3ccccc3)c3ccccc23)cc1S(=O)(=O)NCC1CCCO1 (configuration not stated)	miR-122 sensor 126.8 (no result: F508del corr, EWS-Fli block, LGR2 inh)
O=C(CN1CCN(S(=O)(=O)c2ccccc2)CC1)Nc1ccccc1Cl	F508del corr 8.5 (no result: miR-122 sensor, EWS-Fli block)
CCc1ccc(NC(=O)C(CC)Sc2nc3cc4c(cc3c(=O)n2Cc2ccco2)OCO4)cc1 (configuration not stated)	miR-122 sensor 138.5 (no result: F508del corr, EWS-Fli block, LGR2 inh)
CCc1ccccc1NC(=O)C(CC)Sc1nc2cc3c(cc2c(=O)n1Cc1ccco1)OCO3 (configuration not stated)	none (no result: F508del corr, EWS-Fli block, LGR2 inh)
Cn1c(SCC(=O)Nc2ccc(N3CCOCC3)cc2)nnc1-c1ccccc1	none
C[C@H](CO)N1C[C@H](C)[C@H](CN(C)Cc2ccc(Oc3ccccc3)cc2)Oc2ccc(NC(=O)C3CC3)cc2C1=O	none
C=CCn1c(SCC(=O)N(C)C2CCS(=O)(=O)C2)nc2ccccc2c1=O (configuration not stated)	F508del corr 18.9 (no result: PglD DTNB, miR-122 sensor, Yeast UUG start)
C=CCn1c(SCC(=O)N(CC)C2CCS(=O)(=O)C2)nc2ccccc2c1=O (configuration not stated)	none (no result: PglD DTNB, Yeast UUG start)
CCOc1cccc(/C=N/NC(=S)Nc2ccccc2[N+](=O)[O-])c1O	LGR2 inh 83.5
CCCCNC(=S)N/N=C/c1cccc(OCC)c1O	none (no result: miR-122 sensor)
COc1ccc(OCC(=O)Nc2nccs2)cc1	LGR2 inh 66.1
